System: cardiomyocytic cell line derived from human ventricular heart tissue
Experiment: Small molecule compound screen of gigasome production in cardiomyocytic monocultures;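 note: gigasomes shed into the culture medium were imaged by confocal microscopy and counted as round particles lacking nuclear signal, extrapolated to the whole well, fold change is relative to DMSO vehicle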
Settings: cardiomyocytes

For `CC(N)=NCc1cccc(CN)c1.Cl.Cl` [1400W dihydrochloride], the “Fold Change of Gigasomes Produced vs. DMSO” value (“Fold Change” below) (Table 22, dose 10 nM, 24 hours) was 1.25-1.5, the “Fold Change” value (Table 23 (down-regulators), dose 10 nM) was 1.25-1.5 and the “Fold Change” value (Table 23 (down-regulators), dose 100 nM) was 0.75-1.0. For the same compound, the “Fold Change” value (Table 23 (down-regulators), dose 1000 nM) was 0.75-1.0 and the “Fold Change” value (Table 23 (down-regulators), dose 10000 nM) was 0.5-0.75.

Source: patent US20240400986A1, “MEMBRANE BOUND COMPOSITIONS AND METHODS RELATING TO SAME” (FLAGSHIP PIONEERING INNOVATIONS VII, LLC, priority 2021, published 2024)
